Assay results: patent publication US7723071B2 (priority 1992, dated 2010)

Amino acid sequences for entries named in this document (tags omitted).
UniProt P42866, whole entry R47P/S53N/H54D/V245G/R258Q: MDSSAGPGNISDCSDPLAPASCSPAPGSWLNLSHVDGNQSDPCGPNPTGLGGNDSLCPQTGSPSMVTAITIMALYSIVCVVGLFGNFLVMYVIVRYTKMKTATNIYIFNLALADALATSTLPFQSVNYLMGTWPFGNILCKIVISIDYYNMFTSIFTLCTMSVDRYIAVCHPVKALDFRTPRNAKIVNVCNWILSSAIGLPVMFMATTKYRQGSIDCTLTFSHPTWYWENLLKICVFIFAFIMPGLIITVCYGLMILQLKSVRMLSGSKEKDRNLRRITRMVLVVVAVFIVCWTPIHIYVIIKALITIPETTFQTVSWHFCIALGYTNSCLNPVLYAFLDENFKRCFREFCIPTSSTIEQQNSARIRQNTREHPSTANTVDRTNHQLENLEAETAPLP

Target: T1, DOR-2 (mMOR-1) mu receptor (Mus musculus, UniProt P42866, H54D/R258Q/R47P/S53N/V245G)
T1 construct: expressed in transfected cells
Format: binding, murine

## CN1CC[C@]23c4c5ccc(O)c4O[C@H]2[C@@H](O)C=C[C@H]3[C@H]1C5 [morphine]
  binding to transfected cells: bind morphine
  displacement of 3H-DPN: displacement of ^3H-DPN by nanomolar concentrations
